Assay results: patent US20100249071A1, “Modulators of S1P and Methods of Making And Using” (Exelixis, Inc., priority 2009, published 2010)

The chains behind the UniProt entries cited, without tags or fusion partners.
UniProt P21453, whole entry: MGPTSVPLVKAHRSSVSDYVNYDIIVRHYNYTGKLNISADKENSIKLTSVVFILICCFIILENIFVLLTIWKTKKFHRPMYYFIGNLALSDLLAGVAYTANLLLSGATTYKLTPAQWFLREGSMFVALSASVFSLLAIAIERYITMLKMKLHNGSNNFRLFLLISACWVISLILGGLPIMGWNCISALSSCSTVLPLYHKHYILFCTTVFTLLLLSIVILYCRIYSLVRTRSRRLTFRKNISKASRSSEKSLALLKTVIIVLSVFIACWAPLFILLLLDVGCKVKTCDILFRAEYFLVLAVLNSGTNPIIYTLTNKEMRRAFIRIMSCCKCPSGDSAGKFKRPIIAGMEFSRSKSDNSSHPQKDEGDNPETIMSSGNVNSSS
UniProt Q9H228, whole entry: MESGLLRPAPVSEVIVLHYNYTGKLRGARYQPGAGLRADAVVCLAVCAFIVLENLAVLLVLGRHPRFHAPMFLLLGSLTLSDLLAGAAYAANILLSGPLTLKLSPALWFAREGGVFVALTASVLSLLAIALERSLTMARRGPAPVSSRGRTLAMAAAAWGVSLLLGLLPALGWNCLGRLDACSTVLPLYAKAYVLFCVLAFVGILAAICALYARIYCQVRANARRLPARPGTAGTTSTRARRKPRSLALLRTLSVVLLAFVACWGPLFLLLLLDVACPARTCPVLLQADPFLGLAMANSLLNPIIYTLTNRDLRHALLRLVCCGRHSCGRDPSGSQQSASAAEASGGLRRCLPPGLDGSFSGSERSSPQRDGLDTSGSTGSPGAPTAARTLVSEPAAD
UniProt P32121, whole entry partner: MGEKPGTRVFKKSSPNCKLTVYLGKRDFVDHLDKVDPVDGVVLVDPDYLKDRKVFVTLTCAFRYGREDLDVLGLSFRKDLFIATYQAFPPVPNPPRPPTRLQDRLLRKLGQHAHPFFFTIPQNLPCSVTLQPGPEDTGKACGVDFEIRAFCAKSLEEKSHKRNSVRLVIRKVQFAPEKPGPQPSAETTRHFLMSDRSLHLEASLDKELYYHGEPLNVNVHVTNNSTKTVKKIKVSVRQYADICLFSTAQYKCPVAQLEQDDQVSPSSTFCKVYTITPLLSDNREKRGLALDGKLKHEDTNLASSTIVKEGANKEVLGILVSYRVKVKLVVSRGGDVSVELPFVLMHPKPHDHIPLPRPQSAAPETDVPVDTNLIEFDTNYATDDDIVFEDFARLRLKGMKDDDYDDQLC

Columns and labels:
[1] = target: hS1P1R (hEdg1) membrane protein (Homo sapiens, UniProt P21453); experiment: hS1P1R GTPγS binding assay (Assay 3a); conditions: read-out: Assay 3a EC50
Experimental: Assay 3a: The hS1P1R GTPγS binding assay was carried out at room temperature in 96 well non-binding surface assay plates. The reaction in each well contained 4 μg hS1P1R (hEdg1) membrane protein (Lonza), 30 μM GDP, 0.1 nM [^35S]GTPγS, 0.25% fatty acid free BSA, and serially diluted hS1P1R agonist compound in 200 μL assay buffer (25 mM Tris-HCl PH 7.9, 100 mM NaCl, 3 mM MgCl2, and 0.2 mM EGTA). After one hour of incubation, 0.9 mg of WGA (Wheat Germ Agglutinin) SPA beads in 50 μL of assay buffer was added to each well. The SPA beads were spun down after an additional one hour incubation. The radioactivity of the bound GTPγS was counted by reading the assay plate using a MicroBeta.

S1P1 = S1P1 (Homo sapiens, UniProt P21453); experiment: Tango β-arrestin recruitment assay in U2OS cells (Assay 2b); conditions: read-out: Assay 2b EC50
Description: For the Tango™ β-arrestin recruitment assay, the cytoplasmic C-terminus of S1P1 was tethered to the tTA transcriptional activator with a linker that contains a cleavage site for the N1a protease from tobacco etch virus (TEV protease). The C-terminus of the human β-arrestin2 protein was fused to TEV protease. Binding of an agonist recruits the βl -arrestin-TEV fusion protein to the receptor resulting in cleavage of the linker and released of tTA to enter the nucleus and subsequently activated a tTA-dependent luciferase reporter gene.
Assay 2b: Alternatively, U2OS cells expressing the reporter gene and S1P1 (Invitrogen) were added to the wells of a 384-well white opaque bottom assay plate (PerkinElmer) at 0.3125×10^6 cells per well. […] Fluorescence was measured using an EnVision plate reader (PerkinElmer, Waltham, Mass.) at an excitation wavelength of 409 nm and emission wavelengths of 460 nm and 530 nm. The emission intensity at each wavelength was background subtracted against wells containing medium only and the F460 nm/F530 nm ratio determined for each concentration of the test compounds. Percent activity was calculated as [(test compound ratio−DMSO ratio)/(positive control ratio−DMSO ratio)*100], where the positive control and DMSO ratios are from cells incubated with the efficacy control 1 μM S1P and 1% DMSO, respectively. […]

[2] = target: hS1PR5 (hEdg8) membrane protein (Homo sapiens, UniProt Q9H228); experiment: hS1P5R GTPγS binding assay (Assay 4); conditions: read-out: Assay 4 EC50
Experimental: The hS1PR5 GTPγS binding assay was carried out at room temperature in 96-well non-binding surface assay plates. The reaction in each well contained 5 μg hS1PR5 (hEdg8) membrane protein from CHO cells expressing hS1PR5, 30 μM GDP, 0.1 nM [^35S]GTPγS, 0.25% fatty acid free BSA, and serially-diluted Compound of the Invention in 200 μL assay buffer (25 mM Tris-HCl PH 7.9, 100 mM NaCl, 3 mM MgCl2, and 0.2 mM EGTA). After one hour of incubation, 0.9 mg of WGA (Wheat Germ Agglutinin) SPA beads in 50 μL of assay buffer was added to each well. The SPA beads were spun down after an additional one hour incubation. The radioactivity of the bound GTPγS was counted by reading the assay plate using a MicroBeta.

CC(C)Oc1ccc(-c2nnc(-c3cc(F)c(OC[C@H](N)CO)cc3Cl)s2)cc1
EC50 [1]: 50 to 250 nM | EC50 (S1P1): 50 to 250 nM | EC50 [2]: 250 to 2800 nM
